The source of these data is PubChem BioAssay AID624504 (Sanford-Burnham Center for Chemical Genomics, 2012).

The entries are a selection whose mix differs from that of the whole data set. Activity calls are given as the source filed them. No stated cut-off is given here; in the data, active means inhibition above about 22%; inactive means the rest.

The nature of the assay: fluorescence retest of MPTP screen hits in isolated mitochondria, single concentration (AID 624504).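 Further: 0% = DMSO vehicle and 100% = positive control.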 Conditions: membrane potential, Rhodamine 123 fluorescence, at 10 µM, stronger effect = higher value.
With `O=[N+]([O-])c1cc([N+](=O)[O-])c(Nc2ccc(Cl)cc2)c([N+](=O)[O-])c1`, the inhibition was active: 78.1%.
Next, `O=[N+]([O-])c1cc([N+](=O)[O-])c(Nc2cccnc2)c([N+](=O)[O-])c1`: active: 95.2%.

One may read the inhibition as the percentage by which the read-out fell short of the control.
